# Biological target: Carbonic anhydrase 9 (Homo sapiens, UniProt Q16790)
row,SMILES,Ki
1,NS(=O)(=O)c1ccc(NC(=O)Nc2cccc(C(F)(F)F)c2F)cc1,8.7 nM
2,NS(=O)(=O)c1ccc(NC(=O)Nc2ccc(C(F)(F)F)cc2Cl)cc1,8.4 nM
3,NS(=O)(=O)c1ccc(NC(=O)Nc2c(Cl)c(Cl)c(Cl)c(Cl)c2Cl)cc1,6.3 nM
4,NS(=O)(=O)c1ccc(NC(=O)Nc2ccc(Br)cc2F)cc1,6.3 nM
5,NS(=O)(=O)c1ccc(NC(=O)Nc2c(F)cccc2F)cc1,6.1 nM

# Biological target: Carbonic anhydrase 1 (Homo sapiens, UniProt P00915)
# Assay: Inhibition of human recombinant carbonic anhydrase 1 preincubated for 15 mins prior to testing measured for 10 to 100 secs by phenol red-based stopped-flow CO2 hydration assay
row,SMILES,Ki
1,NS(=O)(=O)c1ccc(NC(=O)Nc2cccc(Cl)c2)cc1,158 nM
